The values that follow come from ChEMBL document CHEMBL6096629, “Indolo[3,2-c]isoquinoline Hydroxamic Acid Derivatives as Novel Orally Topoisomerase-Histone Deacetylase Dual Inhibitors for NSCLC Therapy” (J Med Chem, 2025).

Each structure is given as a SMILES string. Activity calls are given as the source filed them. No cut-off for these calls is given here.

In experiment [1] the target is T1, DNA topoisomerase 1 (Homo sapiens) (UniProt P11387).
T1 sequence (whole entry): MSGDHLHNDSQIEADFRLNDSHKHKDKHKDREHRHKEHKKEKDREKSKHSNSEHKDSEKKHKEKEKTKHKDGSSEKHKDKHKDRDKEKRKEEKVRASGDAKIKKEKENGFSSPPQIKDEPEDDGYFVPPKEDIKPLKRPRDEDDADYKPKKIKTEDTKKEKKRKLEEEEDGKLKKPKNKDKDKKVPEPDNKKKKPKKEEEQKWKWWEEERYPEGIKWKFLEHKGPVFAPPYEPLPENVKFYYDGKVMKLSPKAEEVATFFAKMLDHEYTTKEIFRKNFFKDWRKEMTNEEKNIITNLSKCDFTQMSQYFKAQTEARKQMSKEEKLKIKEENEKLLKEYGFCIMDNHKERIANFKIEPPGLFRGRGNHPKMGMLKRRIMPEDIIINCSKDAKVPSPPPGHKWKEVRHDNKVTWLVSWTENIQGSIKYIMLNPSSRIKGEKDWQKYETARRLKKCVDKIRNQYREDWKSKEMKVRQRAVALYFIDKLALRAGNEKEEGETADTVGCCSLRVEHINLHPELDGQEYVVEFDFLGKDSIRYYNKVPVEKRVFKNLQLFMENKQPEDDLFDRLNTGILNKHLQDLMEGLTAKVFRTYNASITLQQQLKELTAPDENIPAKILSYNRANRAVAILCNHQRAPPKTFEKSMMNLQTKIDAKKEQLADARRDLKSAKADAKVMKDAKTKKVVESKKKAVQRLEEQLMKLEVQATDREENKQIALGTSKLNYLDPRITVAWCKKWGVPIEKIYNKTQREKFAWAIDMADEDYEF
As to the kind of experiment: Inhibition of Top1 (unknown origin) using pBR322 plasmid DNA as substrate at 200 uM incubated for 15 mins by electrophoresis.

Experiment [2] addresses T1, DNA topoisomerase 1 (Homo sapiens). Kind of experiment: Inhibition of Top1 (unknown origin) using pBR322 plasmid DNA as substrate at 20 uM incubated for 15 mins by electrophoresis.
Experiment [3] has the same target. Kind of experiment: Inhibition of Top1 in human NCI-H1975 cells at 1 to 2 uM incubated for 48 hrs by immunoblot analysis. It is filed as cell-based. Conditions: dose 1-2 µM.
In a further experiment the test system is NCI-H1975. Kind of experiment: Induction of DNA damage in human NCI-H1975 cells assessed as increase in gamma-H2AX level incubated for 48 hrs in presence of SAHA by immunoblot analysis. The experiment is classed as functional, cell-based. Background: Immunoblotting shows a protein as a band on a membrane.
Experiment [4] concerns the target T1, DNA topoisomerase 1 (Homo sapiens). Kind of experiment: Inhibition of Top1 in human NCI-H1975 cells at 4 uM incubated for 48 hrs by immunoblot analysis. The experiment is classed as cell-based.

As to `O=C(CCCCCCn1c2cc3c(cc2c2ncc4ccccc4c21)OCO3)NO`, the inhibition entry in experiment [1] and in experiment [2] was “Active” throughout.

For `O=C(CCCCn1c2cc3c(cc2c2[nH]c(=O)c4ccccc4c21)OCO3)NO`, the inhibition result in experiment [1] and in experiment [2] was “Active” in each case.

Turning to `O=C(CCCCCn1c2cc3c(cc2c2[nH]c(=O)c4ccccc4c21)OCO3)NO`, the inhibition entry in experiment [1] was “Active”.

Regarding `O=C(CCCCCCCn1c2cc3c(cc2c2[nH]c(=O)c4ccccc4c21)OCO3)NO`, the inhibition result in experiment [3], in experiment [1] and in experiment [2] was “Active” each time.

As to `CCCNNC(=O)CCCCn1c2cc3c(cc2c2[nH]c(=O)c4ccccc4c21)OCO3`, the inhibition entry in experiment [1] is “inactive”.

As to `O=C(CCCCCCCCn1c2cc3c(cc2c2ncc4ccccc4c21)OCO3)NO`, the inhibition result in experiment [1] is “inactive”.

Consider `CCc1c2c(nc3ccc(OC(=O)N4CCC(N5CCCCC5)CC4)cc13)-c1cc3c(c(=O)n1C2)COC(=O)[C@]3(O)CC` [IRINOTECAN], for which the result in the experiment on NCI-H1975 was Active. Besides, in experiment [4], the inhibition result is “Active”.

For the molecule `O=C(CCCCCCCn1c2cc3c(cc2c2ncc4ccccc4c21)OCO3)NO`, the inhibition result in experiment [1] was “Active”.

Regarding `O=C(CCCCCCn1c2cc3c(cc2c2nc(Cl)c4ccccc4c21)OCO3)NO`, the inhibition entry in experiment [1] is “Active”.

As to `O=C(CCCCCCn1c2cc3c(cc2c2[nH]c(=O)c4ccccc4c21)OCO3)NO`, the inhibition result in experiment [1] was “Active”.

Regarding `O=C(CCCCCCCCn1c2cc3c(cc2c2[nH]c(=O)c4ccccc4c21)OCO3)NO`, the inhibition result in experiment [1] was “Active”.
